The values below are quoted from earlier work in PubChem BioAssay AID1811 (Shanghai Institute of Organic Chemistry, 2009).

For the data set, the system named is acetyl-coa carboxylase. Description: PubChem AID 1811. The note with it: PDB complex binding affinities from literature.

Some of the results follow. Active and inactive are the calls of the source. Unless stated, no cut-off for active and inactive is given here.

With `O=C(c1c2ccccc2cc2ccccc12)N1CCC(N2CCC[C@@H](C(=O)N3CCOCC3)C2)CC1`, the outcome was active.
